From ChEMBL document CHEMBL3352379, “Potent heterocyclic ligands for human complement c3a receptor” (J Med Chem, 2014)
Activity calls are given as the source filed them. The rule behind the calls is not given here.

Legend:
[1] = target: T1, C3a anaphylatoxin chemotactic receptor (Homo sapiens, UniProt Q16581); assay: Displacement of [125I]-C3a from C3AR in HMDMs by scintillation counting method
T1 sequence (Q16581 whole entry): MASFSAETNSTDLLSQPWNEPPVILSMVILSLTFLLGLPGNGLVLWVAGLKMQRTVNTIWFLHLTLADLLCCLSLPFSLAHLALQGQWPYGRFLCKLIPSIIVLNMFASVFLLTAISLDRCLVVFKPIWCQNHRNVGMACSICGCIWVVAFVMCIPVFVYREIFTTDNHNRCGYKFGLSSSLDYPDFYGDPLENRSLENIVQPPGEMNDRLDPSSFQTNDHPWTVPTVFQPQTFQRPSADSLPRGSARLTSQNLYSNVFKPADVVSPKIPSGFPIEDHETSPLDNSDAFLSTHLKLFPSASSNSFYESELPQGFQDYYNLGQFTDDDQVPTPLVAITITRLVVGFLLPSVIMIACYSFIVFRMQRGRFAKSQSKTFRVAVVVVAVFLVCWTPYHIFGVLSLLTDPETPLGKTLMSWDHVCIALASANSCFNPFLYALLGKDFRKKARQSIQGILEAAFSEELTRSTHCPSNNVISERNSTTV
Method in brief: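 Intact day-7 HMDMs (1.2 × 10^6 cells mL−1) incubated 60 min at room temperature with 80 pM [125I]-C3a and competitor in 50 mM Tris, 3 mM MgCl2, 0.1 mM CaCl2, 0.5% BSA, pH 7.4. Filtered on PEI-soaked GF/B, washed with cold Tris, scintillation-counted. Nonspecific binding with 1 μM unlabeled C3a; n ≥ 3.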

[2] = target: T2, C3a anaphylatoxin chemotactic receptor (Homo sapiens) (UniProt Q16581)
T2 sequence (whole entry): T1 sequence (Q16581 whole entry)

[3] = target: T1, C3a anaphylatoxin chemotactic receptor; assay: Agonist activity against C3AR in HMDMs assessed as increase in intracellular calcium release by Fluo-3 AM dye based FLIPR assay relative to 1 uM C3a

| SMILES | IC50 [1] [nM] | pEC50 [2] | EC50 [3] [nM] |
| --- | --- | --- | --- |
| N=C(N)NCCC[C@H](NC(=O)c1ccc(C(c2ccccc2)c2ccccc2)o1)C(=O)O | 55 |  |  |
| N=C(N)NCCC[C@H](NC(=O)c1coc(C(c2ccccc2)c2ccccc2)n1)C(=O)O |  | Active |  |
| N=C(N)NCCC[C@H](NC(=O)c1c[nH]c(C(c2ccccc2)c2ccccc2)n1)C(=O)O | 7 |  | 130 |
